Test results: patent US5268468A, “N-nitrosophenoxybenzenepropanamine and N-1-chloroethyl carbamate intermediates” (Hoechst-Roussel Pharmaceuticals Incorporated, priority 1993, dated 1993)

System: serotonin uptake in rat whole brain and hypothalamic synaptosomes
Assay: [3H]-Serotonin Uptake in Rat Whole Brain and Hypothalamic Synaptosomes
Assay type: biochemical, rat (male CR Wistar)
Settings: rat whole brain or hypothalamic synaptosomes; 50 nM [3H]-5-hydroxytryptamine; 37° C., 5 minutes; pH 7.4; log-probit analysis; read-out: Inhibition of Serotonin Uptake (IC50)
Description: The 2-[3-phenyl-3-(phenoxy)propyl]hydrazines of the present invention are useful for the treatment of personality disorders particularly obsessive compulsive disorders due to their ability to block serotonin uptake in mammals as determined in the assay described below:
[^3 H]-Serotonin Uptake in Rat Whole Brain
and Hypothalamic Synaptosomes
A. Animals: Male CR Wistar rats (100-125 g).
1. Krebs-Henseleit Bicarbonate Buffer, pH 7.4 (KHBB):
Make a 1 liter batch, containing the following salts.
Potassium chloride 0.35 4.7
Calcium chloride 0.14 1.3
Aerate for 60 min. with 95% oxygen/5% carbon dioxide,
2. 0.32 M Sucrose: 21.9 g of sucrose, bring to 200 ml.
3. Serotonin creatinine sulfate 0.1 mM stock solution is
made up in 0.01 N hydrochloric acid. This is used to
dilute the specific activity of radiolabeled
[H^3 ]-5-hydroxytryptamine (serotonin).
4. 5-[1,2-^3 H(N)]-Hydroxytryptamine creatinine sulfate
(Serotonin), specific activity 20-30 Ci/mmol is used.
The final desired concentration of
[H^3 ]-5-hydroxytryptamine in the assay is 50 nM. The
dilution factor is 0.8. Therefore, the KHBB is made up to
contain 62.5 nM [H^3 ]-5-hydroxy-tryptamine.
A) 56.1 μl of 0.1 mM 5-hydroxytryptamine
*B) 0.64 nmole of 5-hydroxytryptamine
5. For most assays, a 1 mM stock solution of the test com-
pound is made up in suitable solvent and serially diluted […]
scintillation vials, and counted in 10 ml of Liquiscint […]

`CNCCC(Oc1ccc(C(F)(F)F)cc1)c1ccccc1` (stereo not shown) [N-Methyl-3-[4-(trifluoromethyl)phenoxy]benzenepropanamine hydrochloride] was tested, and the IC50 was 250 nM.

Structures can show the parent of a compound that is named as a salt.
